This passage reports Ratio IC50 results from ChEMBL document CHEMBL4342404, “Anti-cholinesterase hybrids as multi-target-directed ligands against Alzheimer's disease (1998-2018)” (Bioorg Med Chem, 2019).

Assay [1] has as its target Acetylcholinesterase and butyrylcholinesterase (AChE and BChE) (Rattus norvegicus) (UniProt P37136+Q9JKC1). Description: Selectivity ratio of IC50 for rat serum butyrylcholinesterase to IC50 for rat cortex homogenate acetylcholinesterase.
In assay [2] the target is T1, Acetylcholinesterase (Rattus norvegicus) (UniProt P37136).
T1 sequence (whole entry): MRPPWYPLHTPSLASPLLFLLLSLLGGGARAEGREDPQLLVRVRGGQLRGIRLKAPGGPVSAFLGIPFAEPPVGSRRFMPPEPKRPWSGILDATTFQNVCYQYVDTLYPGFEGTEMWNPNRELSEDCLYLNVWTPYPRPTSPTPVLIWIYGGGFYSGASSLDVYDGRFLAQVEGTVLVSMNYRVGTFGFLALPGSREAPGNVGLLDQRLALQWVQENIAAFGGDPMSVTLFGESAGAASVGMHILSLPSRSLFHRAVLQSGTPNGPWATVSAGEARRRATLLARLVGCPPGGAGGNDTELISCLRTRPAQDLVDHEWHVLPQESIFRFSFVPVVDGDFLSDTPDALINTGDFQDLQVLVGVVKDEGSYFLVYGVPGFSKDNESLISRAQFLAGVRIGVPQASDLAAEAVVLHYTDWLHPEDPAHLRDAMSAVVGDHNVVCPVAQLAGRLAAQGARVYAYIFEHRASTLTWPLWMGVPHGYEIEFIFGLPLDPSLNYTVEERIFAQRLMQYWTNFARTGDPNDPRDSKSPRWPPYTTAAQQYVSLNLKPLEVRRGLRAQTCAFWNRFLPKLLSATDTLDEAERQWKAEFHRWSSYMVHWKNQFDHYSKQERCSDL
As to the kind of experiment: Potency index, ratio of huperzine-A IC50 to compound IC50 for rat cortex homogenate acetylcholinesterase.

In assay [3] the target is T1, Acetylcholinesterase (Rattus norvegicus). As to the kind of experiment: Potency index, ratio of tacrine IC50 to compound IC50 for rat cortex homogenate acetylcholinesterase.

For `O=c1ccc2c([nH]1)CCCC2NCCCCCCCCCCNc1c2c(nc3ccccc13)CCCC2` (stereo not drawn), the Ratio IC50 in assay [1] was 9.3; in assay [2], 13; in assay [3], 25.
